From patent US9499517B2, “Substituted prolines / piperidines as orexin receptor antagonists” (Eolas Therapeutics, Inc., priority 2012, dated 2016)

Chains of the proteins cited; added tags and fusions are not shown.
UniProt O43614, whole entry: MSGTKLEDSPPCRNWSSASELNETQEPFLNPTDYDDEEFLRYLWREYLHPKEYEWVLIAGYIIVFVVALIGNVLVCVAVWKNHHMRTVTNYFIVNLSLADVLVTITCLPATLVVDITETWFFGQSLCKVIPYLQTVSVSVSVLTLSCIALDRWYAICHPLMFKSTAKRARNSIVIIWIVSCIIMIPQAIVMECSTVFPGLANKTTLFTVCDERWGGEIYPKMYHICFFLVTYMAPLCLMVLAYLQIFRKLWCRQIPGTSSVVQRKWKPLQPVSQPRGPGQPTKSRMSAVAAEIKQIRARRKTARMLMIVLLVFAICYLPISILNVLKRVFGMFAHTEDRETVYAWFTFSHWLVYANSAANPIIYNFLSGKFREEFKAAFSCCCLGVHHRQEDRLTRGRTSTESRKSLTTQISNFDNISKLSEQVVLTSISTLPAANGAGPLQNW
UniProt O43613, whole entry: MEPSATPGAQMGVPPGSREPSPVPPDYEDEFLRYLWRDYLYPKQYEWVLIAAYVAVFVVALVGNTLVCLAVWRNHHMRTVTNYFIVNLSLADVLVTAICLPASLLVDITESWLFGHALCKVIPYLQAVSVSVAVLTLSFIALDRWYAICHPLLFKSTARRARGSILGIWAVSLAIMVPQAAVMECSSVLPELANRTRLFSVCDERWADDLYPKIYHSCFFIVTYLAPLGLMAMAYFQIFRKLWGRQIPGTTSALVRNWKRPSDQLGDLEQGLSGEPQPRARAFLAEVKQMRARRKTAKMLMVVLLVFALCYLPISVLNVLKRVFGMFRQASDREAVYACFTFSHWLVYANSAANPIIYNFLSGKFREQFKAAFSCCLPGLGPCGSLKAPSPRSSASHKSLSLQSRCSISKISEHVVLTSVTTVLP

Tests used:
OX2 = target: T1, OX2 (Homo sapiens, UniProt O43614); assay: Orexin receptor cell-based functional assay: [Ca2+]i by FLIPR in CHO-OX2 cells, antagonism of EC90 of OXA; conditions: Table 4
T1 construct: expressed in transfected cells; host or cells: CHO (CHO-OX2, kept under G418 or Blasticidin selection)

OX1 = target: T2, OX1 (Homo sapiens, UniProt O43613); assay: Orexin receptor cell-based functional assay: [Ca2+]i by FLIPR in CHO-OX1 cells, antagonism of EC90 of OXA
T2 construct: expressed in transfected cells; host or cells: CHO (CHO-OX1, kept under G418 or Blasticidin selection)

Question: With `Cc1ccc(-c2ncccn2)c(C(=O)N2CCC[C@@H](C)[C@H]2CNc2ccc(C(F)(F)F)cn2)c1` (racemic) [Example 112, rac-((2S,3R)-3-methyl-2-(((5-(trifluoromethyl)pyridin-2-yl)amino)methyl)piperidin-1-yl)(5-methyl-2-(pyrimidin-2-yl)phenyl)methanone] as the compound, how does the IC50 (OX2) read?
Answer: 2900 nM

Question: With `Cc1ccc(-n2nccn2)c(C(=O)N2CCC[C@@H](C)[C@H]2CNc2ccc(C(F)(F)F)cn2)c1` (racemic) [Example 114, rac-((2S,3R)-3-methyl-2-(((5-(trifluoromethyl)pyridin-2-yl)amino)methyl)piperidin-1-yl)(5-methyl-2-(2H-1,2,3-triazol-2-yl)phenyl)methanone] as the compound, how does the IC50 (OX1; Table 4) read?
Answer: 5 nM

Question: What about the IC50 (OX2) of the same compound?
Answer: 270 nM

Question: Which “selectivity for OX1 over OX2” value (OX1; relative to Examples 112 and 114 (Table 4)) does the source give for `C[C@@H]1CCCN(C(=O)c2cc(F)ccc2-n2nccn2)[C@@H]1CNc1ncc(C(F)(F)F)cn1` [Example A207, (5-Fluoro-2-(2H-1,2,3-triazol-2-yl)phenyl)((2S,3R)-3-methyl-2-(((5-(trifluoromethyl)pyrimidin-2-yl)amino)methyl)piperidin-1-yl)methanone] here?
Answer: improved selectivity for OX1 over OX2
